A short description of the data set: in vivo. Conditions: mouse, po.

On to `Cc1nc2n(c(=O)c1CCN1CCC(c3noc4cc(F)ccc34)CC1)CCCC2` [Risperidone, reference compound], for which the ED50 was 0.92 mg/kg.
